Literature values in paper PMC6796870, “A two-step lineage reprogramming strategy to generate functionally competent human hepatocytes from fibroblasts” (Cell Research, 2019).

Settings: Table S9; ref 1,2 (Chen, M. et al. 2011); cited from earlier work

For Maraviroc, the Label is given as “DILI concern by FDA”.
